Measured values from patent US20230159537A1, “COMPOUND, PREPARATION METHOD THEREOF, AND USE THEREOF IN PREPARATION OF ANTI-CANCER DRUG” (TIANJIN JIKUN MEDICAL TECHNOLOGY CO., LTD., priority 2020, published 2023).

The chains behind the UniProt entries cited, without tags or fusion partners. Residues count along the entry.
UniProt P11362, 22-822: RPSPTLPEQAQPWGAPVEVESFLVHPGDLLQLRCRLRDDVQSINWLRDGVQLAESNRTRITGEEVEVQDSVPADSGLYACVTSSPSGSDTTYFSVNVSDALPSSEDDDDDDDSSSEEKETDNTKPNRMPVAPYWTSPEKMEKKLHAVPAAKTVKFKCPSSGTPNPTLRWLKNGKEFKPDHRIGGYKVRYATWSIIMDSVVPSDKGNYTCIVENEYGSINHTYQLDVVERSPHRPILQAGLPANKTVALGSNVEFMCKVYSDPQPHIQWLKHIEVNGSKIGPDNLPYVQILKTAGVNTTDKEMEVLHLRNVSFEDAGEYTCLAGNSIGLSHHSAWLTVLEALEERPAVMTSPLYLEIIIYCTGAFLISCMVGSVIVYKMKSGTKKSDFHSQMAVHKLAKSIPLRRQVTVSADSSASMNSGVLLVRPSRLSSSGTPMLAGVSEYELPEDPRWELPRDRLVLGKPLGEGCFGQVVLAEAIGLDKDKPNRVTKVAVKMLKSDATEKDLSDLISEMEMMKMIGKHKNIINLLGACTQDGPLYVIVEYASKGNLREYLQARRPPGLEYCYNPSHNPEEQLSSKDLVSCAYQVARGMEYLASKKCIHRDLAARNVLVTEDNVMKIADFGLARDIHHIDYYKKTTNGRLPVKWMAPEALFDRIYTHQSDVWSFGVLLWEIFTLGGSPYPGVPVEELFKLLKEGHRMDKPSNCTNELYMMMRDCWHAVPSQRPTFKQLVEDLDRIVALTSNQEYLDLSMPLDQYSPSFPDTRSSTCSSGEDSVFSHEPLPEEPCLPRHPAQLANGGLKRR
UniProt P22607, 23-806: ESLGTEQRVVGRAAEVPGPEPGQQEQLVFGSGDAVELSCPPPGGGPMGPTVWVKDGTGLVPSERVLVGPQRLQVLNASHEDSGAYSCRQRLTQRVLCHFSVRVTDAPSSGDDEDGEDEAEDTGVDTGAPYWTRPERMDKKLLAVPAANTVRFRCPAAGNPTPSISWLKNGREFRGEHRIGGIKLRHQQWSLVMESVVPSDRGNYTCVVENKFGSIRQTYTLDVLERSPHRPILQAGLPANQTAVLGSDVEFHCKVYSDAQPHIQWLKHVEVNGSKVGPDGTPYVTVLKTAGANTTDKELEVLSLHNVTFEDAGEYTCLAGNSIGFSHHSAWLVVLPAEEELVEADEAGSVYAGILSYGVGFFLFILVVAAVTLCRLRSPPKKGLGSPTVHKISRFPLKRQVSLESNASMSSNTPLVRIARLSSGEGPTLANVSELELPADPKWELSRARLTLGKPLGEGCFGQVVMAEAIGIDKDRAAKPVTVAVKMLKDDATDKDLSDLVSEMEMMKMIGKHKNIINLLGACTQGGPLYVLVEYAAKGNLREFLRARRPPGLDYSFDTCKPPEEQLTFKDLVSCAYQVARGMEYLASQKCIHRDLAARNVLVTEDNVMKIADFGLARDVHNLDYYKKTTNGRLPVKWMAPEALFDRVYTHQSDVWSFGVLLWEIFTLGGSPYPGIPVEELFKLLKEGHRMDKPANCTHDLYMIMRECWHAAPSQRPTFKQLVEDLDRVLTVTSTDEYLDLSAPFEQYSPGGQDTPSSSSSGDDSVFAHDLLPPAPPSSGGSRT
UniProt P22455, 22-802: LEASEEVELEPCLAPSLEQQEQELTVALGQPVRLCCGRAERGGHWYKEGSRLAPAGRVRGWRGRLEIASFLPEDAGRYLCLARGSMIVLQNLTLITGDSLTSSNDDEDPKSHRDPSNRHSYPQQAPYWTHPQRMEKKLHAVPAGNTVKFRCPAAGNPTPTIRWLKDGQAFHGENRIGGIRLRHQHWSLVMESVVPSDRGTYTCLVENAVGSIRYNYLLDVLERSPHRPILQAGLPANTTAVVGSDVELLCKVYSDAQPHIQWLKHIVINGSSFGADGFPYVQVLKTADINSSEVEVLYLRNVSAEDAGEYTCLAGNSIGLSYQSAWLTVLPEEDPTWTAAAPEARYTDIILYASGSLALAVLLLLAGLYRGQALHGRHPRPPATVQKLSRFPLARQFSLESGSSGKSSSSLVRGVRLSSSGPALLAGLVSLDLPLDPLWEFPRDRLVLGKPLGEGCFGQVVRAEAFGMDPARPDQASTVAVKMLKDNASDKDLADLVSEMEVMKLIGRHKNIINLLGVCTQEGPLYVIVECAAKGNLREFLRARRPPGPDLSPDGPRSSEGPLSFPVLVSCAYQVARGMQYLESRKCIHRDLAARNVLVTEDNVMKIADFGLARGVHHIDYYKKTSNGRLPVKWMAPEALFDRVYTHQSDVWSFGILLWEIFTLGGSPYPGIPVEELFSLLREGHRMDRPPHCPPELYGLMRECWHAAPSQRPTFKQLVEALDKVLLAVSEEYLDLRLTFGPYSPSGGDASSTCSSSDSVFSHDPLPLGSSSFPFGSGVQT

Tests used:
FGFR1 = target: T1, FGFR1 (Homo sapiens, UniProt P11362); test: HTRF enzyme activity test, FGFR1; assay type: biochemical
T1 construct: made in house; host or cells: Escherichia coli

FGFR3 = target: T2, FGFR3 (Homo sapiens, UniProt P22607); test: HTRF enzyme activity test, FGFR3; assay type: biochemical
T2 construct: made in house; host or cells: Escherichia coli

FGFR4 = FGFR4 (Homo sapiens, UniProt P22455); test: HTRF enzyme activity test, FGFR4; assay type: biochemical
[1] = tested on: NCI-H1581 subcutaneous xenograft (high FGFR1 expression); details: mouse, in vivo

## C=CC(=O)N1CCN(CCCCCn2nc(-c3ccc(C)c4ccccc34)c3c(N)ncnc32)CC1 [Compound 19]
FGFR1
  IC50: > 5000 nM
FGFR3
  IC50: > 5000 nM
FGFR4
  IC50: > 5000 nM

## C=CC(=O)N1CCN(CCCCCn2nc(-c3ccc(Br)c4ccccc34)c3c(N)ncnc32)CC1 [Compound 20]
FGFR1
  IC50: > 5000 nM
FGFR3
  IC50: > 5000 nM
FGFR4
  IC50: > 5000 nM

## COc1cc(OC)cc(-c2nn(CCCCCN3CCN(C(=O)/C=C/C(F)(F)F)CC3)c3ncnc(N)c23)c1 [Compound 36]
[1]
  body weight loss: did not lead to an obvious weight loss
  tumor inhibition rate: 72%
